# Screens deposited in PubChem by National Center for Advancing Translational Sciences (NCATS).
# KDM4E inh – inhibitors of human JMJD2E histone demethylase | B2RXH2 | JMJD2E catalytic domain, FDH-coupled NADH fluorescence (FDH is formaldehyde dehydrogenase) | Potency, µM (series often up to 57.1 µM), for inactives: top-dose activity change, negative = inhibition, usual class: inhibitors | hit rate 1.6% among 230,000 | AID 2147; active means well fitted inhibition curve with a large enough effect, not every such curve was filed as active; inconclusive means small, poorly fitted or top-dose-only effect, or another doubt; inactive means no such curve, though single readings can be large or run the other way;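 further: potency means the concentration at half of the fitted maximal effect; 0% = wells with enzyme and -100% = buffer wells without enzyme; nearly all actives have a fitted effect of over 50% in size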
# G9a inh – blocks human histone lysine methyltransferase G9a | Q96KQ7 | G9a H3K9 monomethylation, AlphaScreen, 2 h | Potency, µM (doses to about 102 µM), for the others: top-dose activity, negative = inhibition, usual class: inhibitors | hit rate 8.8% among 350,000 | AID 504332; further: potency means the concentration at half of the fitted maximal effect; on the % scale 0 is the no-effect control and ±100 the full control effect; nearly all actives have a fitted effect of over 75% in size
#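 Methyltransferase reactions run at room temperature for 2 h (20 nM enzyme, 500 nM biotin-H3K9 peptide, 20 uM SAM) after a 15 min compound preincubation; product detected by AlphaScreen beads and anti-H3K9me1 antibody.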
# LMNA splice mod – changes lamin A minigene splicing in HeLa cells | Potency, µM (highest dose often 46.1 µM), for the others: at the highest dose ratio change, negative = inhibition, usual class: inhibitors | HeLa LMNA splicing GFP/RFP minigene ratio, 48 h | hit rate 0.01% among 200,000; active means well fitted inhibition curve with a large enough effect in the signal ratio, with a control signal flat, not every such curve was filed as active; inconclusive means small, poorly fitted or top-dose-only effect, or effect the other way, or a change in a side signal; the % refers to the signal ratio; further: potency means the concentration at half of the fitted maximal effect; on the % scale 0 is the no-effect control and ±100 the full control effect
#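 S3 HeLa stable clones carrying a lamin A-EGFP splicing minigene plus DsRed2 were seeded at 600 cells/well in Opti-MEM with 2% FBS, pin-dosed and incubated 48 h at 37°C. Acumen cytometry (488 nm) gave the GFP/RFP total-intensity ratio.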
# ALDH1A1 inh – ALDH1A1 (human) enzyme inhibition. P00352. Purified ALDH1A1, NADH fluorescence, propionaldehyde substrate. Potency, µM (doses to about 75.3 µM), for inactives: top-dose activity, negative = inhibition, actives largely listed as inhibitors. hit rate 7.3% among 220,000. AID 1030; active means well fitted inhibition curve with a large enough effect, not every such curve was filed as active; inconclusive means small, poorly fitted or top-dose-only effect, or another doubt; inactive means no such curve, though single readings can be large or run the other way;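 further: potency means the concentration at half of the fitted maximal effect; plate controls were no enzyme wells and a reference inhibitor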
# Sfp PPTase inh – inhibitors of Bacillus subtilis Sfp phosphopantetheinyl transferase; Q9F4F7; Biochemical Sfp PPTase activity, qHTS; Potency, µM, inactives show max response, negative = inhibition, actives largely listed as inhibitors; hit rate 3.5% among 310,000; AID 1490; active means well fitted inhibition curve with a large enough effect; inconclusive means small, poorly fitted or top-dose-only effect, or another doubt; inactive means no such curve, though single readings can be large or run the other way;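 further: the enzyme is Sfp with the accession as filed and its product quenches rhodamine fluorescence; potency means the concentration at half of the fitted maximal effect; 0% = enzyme reaction without inhibitor and -100% = no enzyme wells; top concentration of the series not given in the record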
#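 With Hepes-Na pH 7.6 buffer containing 10 mM MgCl2, Sfp (15 nM) modified BHQ-2-YbbR (12.5 uM) using rhodamine-CoA (5 uM). Two reads 30 minutes apart at 525/598 nm yielded each well's rate.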
# miR-21 FLuc – miR-21 reporter, rising signal. HeLa miR-21 FLuc reporter, luciferase, 48 h. Potency, µM (highest dose often 38.3 µM), for the others: at the highest dose reporter change, positive = more light. 340,000 tested, under 10 active. AID 2288; active = well fitted rising curve with a large enough effect; inconclusive = small, poorly fitted or top-dose-only effect; inactive = no such curve, though single readings can be large or run the other way;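 further: % of control where 0% means no effect; miR-21 action dims this reporter so a rising signal means less miR-21 action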
#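 Luminescence from a firefly luciferase reporter carrying a miR-21 binding site downstream, stably expressed under a CMV promoter in HeLa cells that make miR-21 endogenously, reports miRNA modulation after 48 h compound exposure up to approximately 40uM final.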
# * = called active by the depositor; u = inconclusive; x = not tested or not shown; [ ] = another dose, or the depositor's remark. In the library only some 13% were active in any assay of this set; here they are far more common. Unless noted, the call rests on the fitted dose curve; in most records, active means well fitted curve in the direction sought with a large enough effect; inconclusive means small, poorly fitted or top-dose-only effect, or another doubt; inactive means no such curve, though single readings can be large; an effect the other way counts as inactive or inconclusive.
1) CN(C)S(=O)(=O)c1cccc(C(=O)NCc2ccco2)c1
2) COc1ccc(Br)c(C(=O)Nc2cc3c(cc2N2CCOCC2)n(C)c(=O)n3C)c1
3) Cc1oc(-c2cccc(Cl)c2)nc1Cn1c(SCc2ccccc2F)nc2ccncc21
4) CCOc1ccc2[nH]c(=O)c(CN(Cc3ccco3)C(=O)c3ccc(Br)cc3)cc2c1
5) CCSc1ncc(Cl)c(C(=O)N(Cc2ccc(N(C)C)cc2)Cc2ccco2)n1
6) Cc1cc(C)c2c(CC(=O)N(Cc3ccc(N(C)C)cc3)Cc3ccco3)coc2c1
7) CN(C)S(=O)(=O)c1cccc(C(=O)N(Cc2ccc(F)cc2)Cc2ccco2)c1
8) CCCN1C(=O)C(Cc2nc3ccccc3c(=O)n2CC)c2cc(Br)ccc21 (stereo unspecified)

assay / compound	1	2	3	4	5	6	7	8
KDM4E inh	7.1%	x	x	u	x	x	-2.9%	x
G9a inh	u	-43.2%[59 µM]	-39.9%[59 µM]	u	12.6µM*	11.2µM*	6.3%[2.33 µM]	-36.8%[59 µM]
LMNA splice mod	2.3%	x	x	10.2%	x	x	u	x
ALDH1A1 inh	u	x	x	4.47µM*	x	x	25.1µM*	x
Sfp PPTase inh	7.0%	x	x	39.8µM*	x	x	-22.9%	x
miR-21 FLuc	-1.6%	-11.2%	-13.8%	0.2%	29.8%	10.1%	1.2%	u

9) COc1cccc(C(=O)N(Cc2ccco2)Cc2cc3cccc(C)c3[nH]c2=O)c1
10) Cc1ccccc1C(=O)N(Cc1ccc(N(C)C)cc1)Cc1ccco1
11) CN(C)c1ccc(CN(Cc2ccco2)C(=O)c2ccc(F)cc2)cc1
12) Cc1ccc(C(=O)N(Cc2ccc(N(C)C)cc2)Cc2ccco2)cc1
13) CCc1ccc(CN(Cc2ccco2)C(=O)c2ccc(C)cc2)cc1
14) O=C(Nc1ccc(F)cc1Cl)C1CCN(c2ncnc3c2nc2n3CCCCC2)CC1
15) CC(C)N(Cc1ccccc1)C(=O)COC(=O)/C=C/c1cnc2ccccc2n1
16) CC(=O)c1ccc2c(c1)C1C=CCC1C(c1ccncc1)N2 (stereo unspecified)

assay / compound	9	10	11	12	13	14	15	16
KDM4E inh	u	x	x	x	x	x	-3.7%	u
G9a inh	12.6%	12.6µM*	12.6µM*	14.1µM*	52.6%[59 µM]	-12.1%[59 µM]	-49.2%	u
LMNA splice mod	-10.4%	x	x	x	x	4.4%[46 µM]	x	8.8%
ALDH1A1 inh	14.1µM*	x	x	x	x	x	15.8µM*	20µM*
Sfp PPTase inh	1.9%	x	x	x	x	x	6.0%	-27.6%
miR-21 FLuc	-1.5%	3.2%	-1.1%	-2.7%	4.4%	-2.0%	0.5%	-32.6%

# 4 entries out of the list above, arranged by their value in miR-21 FLuc, lowest first.
no. | Molecule | KDM4E inh | G9a inh | ALDH1A1 inh | Sfp PPTase inh | miR-21 FLuc
11 | CN(C)c1ccc(CN(Cc2ccco2)C(=O)c2ccc(F)cc2)cc1 | x | 12.6µM* | x | x | -1.1%
4 | CCOc1ccc2[nH]c(=O)c(CN(Cc3ccco3)C(=O)c3ccc(Br)cc3)cc2c1 | u | u | 4.47µM* | 39.8µM* | 0.2%
6 | Cc1cc(C)c2c(CC(=O)N(Cc3ccc(N(C)C)cc3)Cc3ccco3)coc2c1 | x | 11.2µM* | x | x | 10.1%
5 | CCSc1ncc(Cl)c(C(=O)N(Cc2ccc(N(C)C)cc2)Cc2ccco2)n1 | x | 12.6µM* | x | x | 29.8%

# (more compounds)
17) CC(=O)c1ccc2c(c1)C1C=CCC1C(C(=O)O)N2 (stereo unspecified)
18) Brc1cc2c(cc1C1Nc3ccccc3C3C=CCC31)OCO2 (stereo unspecified)
19) COC(=O)c1ccc(C2Nc3ccc(/C(C)=N/NC(=O)C(OC)c4ccccc4)cc3C3C=CCC32)cc1 (stereo unspecified)
20) C1=CC2c3ccccc3NC(c3ccncc3)C2C1 (stereo unspecified)
21) CCOCN(C(=O)Cn1cnc2cc(C)c(C)cc21)c1c(C)cccc1CC
22) COc1ccc(C2c3c(-c4ccccc4O)n[nH]c3C(=O)N2CCc2ccccc2)cc1 (stereo unspecified)
23) Cc1ccc(C(=O)NCC2CCCN2S(=O)(=O)c2cccs2)cc1C (stereo unspecified)
24) Oc1cc2c(cc1O)[C@H](c1ccccc1)CNCC2

assay / compound	17	18	19	20	21	22	23	24
KDM4E inh	2.3%	-10.2%	u	u	x	x	x	14.1µM*
G9a inh	-174.0%[12.7 µM]	42.2%[59 µM]	7.08µM*	1.58µM*	1.0%[59 µM]	1.8%[59 µM]	-1.7%	x
LMNA splice mod	x	u	2.1%	10.5%	x	x	x	x
ALDH1A1 inh	u	3.9%	u	10µM*	x	x	x	4.5%
Sfp PPTase inh	-20.3%	-7.4%	u	31.6µM*	x	x	x	79.4µM*
miR-21 FLuc	2.9%	4.3%	-13.5%	-10.5%	27.1%	27.2%	x	x

25) COc1cc2c(cc1OC)C(c1ccccc1)CN(C)CC2 (stereo unspecified)
26) O=c1c(O)c(-c2cccs2)oc2ccc(Cl)cc12
27) O=c1c(O)c(-c2cccs2)oc2ccccc12
28) O=[N+]([O-])/C(C=Nc1ccccc1O)=C\Nc1ccccc1O
29) O=[N+]([O-])/C(=C\Nc1ccccc1Cl)S(=O)(=O)c1ccccc1

assay / compound	25	26	27	28	29
KDM4E inh	1.6%	u	u	12.6µM*	-0.3%
G9a inh	u	97.8%[59 µM]	17.8µM*	-16.7%	-46.4%[59 µM]
LMNA splice mod	-7.2%	u	-23.4%	x	u
ALDH1A1 inh	-7.1%	7.5%	-14.4%	x	-99.4%
Sfp PPTase inh	-0.8%	-0.3%	7.1%	-12.6%	-20.9%
miR-21 FLuc	x	-12.1%	-12.7%	-8.5%	-5.4%
